Tested on: EMT-6 carcinoma
Test: Boron biodistribution in EMT-6 tumour-bearing mice (DCP-AES)
Conditions: for Blood boron concentration / Brain boron concentration / Liver boron concentration / Tumour boron concentration: single i.v. bolus approx. 5 mg boron/kg
Method: Female BALB/c mice (20-25 g) bearing the EMT-6 carcinoma were used. The mice-were housed four to a cage in temperature-controlled rooms and had free access to food and water. The mice were maintained in a controlled light/dark cycle, with lights on between 0700 and 1900 h In all studies, anaesthesia was maintained with ketamine (120 mg/kg) and xylazine (20 mg/kk). Animals were monitored on a daily basis for general health. Animals were euthanised, as required, under anaesthesia.
The compounds were injected in a saline solution containing 50 mg/ml (0.5 mg boron/ml). The administered volume was 0.01 mL/gbw by single bolus injection delivering a dose of approximately 5 mg boron/kg.
Concentrations of boron in tissue samples were determined using direct current plasma atomic emission spectroscopy (DCP-AES), see Coderre, J. A., Button, T. M., Micca, P. L. Fisher, C., Nawrocky, M. M., and Liu, H. B. Int. J. Radiat Oncol. Biol. Phys. (1994) 30, 643-652.
Visual observation of animal appearance, levels of activity and general behaviour indicated no evidence of toxicity (see Miura, M., Micca, P. L., Fisher, C. D., Gordon, C. R., Heinrichs, J. C. et al. Brit. J. Radiol. (1998) 847, 773-781). Tumour, blood, brain, and liver were sampled at 6, 24, 48, and 72 hours after injection for boron analyses. Four mice were used per time sampling point (16 mice in total). The boron biodistribution data are detailed in Table 2 below.

**Q.** How did the Blood boron concentration (6 h after injection) turn out when poly(HPMA-co-MA-GG-F BSMel) [PP403] was run?
**A.** 13.8 ± 0.5 µg/g

**Q.** And the Brain boron concentration (6 h after injection)?
**A.** 0.3 ± 0.1 µg/g

**Q.** And the Liver boron concentration (6 h after injection)?
**A.** 10.4 ± 0.5 µg/g

**Q.** What about the Tumour boron concentration (6 h after injection) of the same substance?
**A.** 3.5 ± 0.2 µg/g

**Q.** And the Blood boron concentration (24 h after injection)?
**A.** 5.7 ± 0.1 µg/g

**Q.** What about the Brain boron concentration (24 h after injection) of the same substance?
**A.** 0.2 ± 0.1 µg/g

**Q.** And the Liver boron concentration (24 h after injection)?
**A.** 7.4 ± 0.4 µg/g

**Q.** And the Tumour boron concentration (24 h after injection)?
**A.** 3.1 ± 0.3 µg/g

**Q.** What about the Blood boron concentration (48 h after injection) of the same substance?
**A.** 4.2 ± 0.5 µg/g

**Q.** What about the Liver boron concentration (48 h after injection) of the same substance?
**A.** 7.7 ± 0.4 µg/g

**Q.** What about the Tumour boron concentration (48 h after injection) of the same substance?
**A.** 2.9 ± 0.1 µg/g

**Q.** And the Blood boron concentration (72 h after injection)?
**A.** 2.1 ± 0.2 µg/g

**Q.** What about the Brain boron concentration (72 h after injection) of the same substance?
**A.** 0.1 ± 0.1 µg/g

**Q.** What about the Liver boron concentration (72 h after injection) of the same substance?
**A.** 6.9 ± 0.2 µg/g

**Q.** And the Tumour boron concentration (72 h after injection)?
**A.** 2.3 ± 0.2 µg/g

**Q.** What about the “tumour boron concentration relative to that from PP404” value (approx. 5 mg boron/kg i.v.) of the same substance?
**A.** about three times greater

Source: US7662360B2, “Conjugates of N-hydroxypropymethacrylamide-methacrylate copolymer with nuclide activation agent and/or anti-cancer compounds” (Psimei Pharmaceuticals PLC, priority 2002, dated 2010)
